# Source: BindingDB's records for 2542556
# The chains behind the UniProt entries cited, without tags or fusion partners.
# UniProt P41143, whole entry, looked up: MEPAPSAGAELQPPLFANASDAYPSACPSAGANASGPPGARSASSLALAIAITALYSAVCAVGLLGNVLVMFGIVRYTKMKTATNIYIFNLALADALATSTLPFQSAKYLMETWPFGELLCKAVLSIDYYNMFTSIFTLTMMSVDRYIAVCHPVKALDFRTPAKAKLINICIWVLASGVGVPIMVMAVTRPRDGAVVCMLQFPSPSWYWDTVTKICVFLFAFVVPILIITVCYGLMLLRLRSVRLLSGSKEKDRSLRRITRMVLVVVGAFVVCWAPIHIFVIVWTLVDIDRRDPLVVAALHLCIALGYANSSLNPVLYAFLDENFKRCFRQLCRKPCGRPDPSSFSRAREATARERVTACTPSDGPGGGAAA
# Target: T1, Delta-type opioid receptor (Homo sapiens, UniProt P41143)
# Experiment: ASSAY_NAME: ChEBML_146883 DESCRIPTION: Inhibitory activity against Opioid receptor delta 1 of guinea pig was determined by using [3H]DADLE radioligand
row,Structure (SMILES),IC50 [µM]
1,CN1CCC[C@@]12CCCC[C@@H]2NC(=O)CCc1ccccc1,> 10
2,CN1CC[C@]23CCCC[C@H]2[C@H]1Cc1ccc(O)cc13,0.0029

# Target: T1, Delta-type opioid receptor
# Experiment: ASSAY_NAME: ChEMBL_146883 (CHEMBL751658) DESCRIPTION: Inhibitory activity against Opioid receptor delta 1 of guinea pig was determined by using [3H]DADLE radioligand
row,Structure (SMILES),IC50 [µM]
1,CN1CCC[C@@]12CCCC[C@@H]2NS(=O)(=O)c1ccc(Br)cc1,> 10
2,CN1CCC[C@@]12CCCC[C@@H]2NC(=O)Cc1ccc(Cl)c(Cl)c1,5.8
3,CN1CCC[C@@]12CCCC[C@@H]2NC(=O)Cc1ccc(Br)cc1,> 10
4,CN(C(=O)Cc1ccc(Cl)c(Cl)c1)[C@H]1CCCC[C@@]12CCCN2C,> 10
